Data as given in US10562947B2, “Compositions and methods for preventing or treating diseases, conditions or processes characterized by aberrant fibroblast proliferation and extracellular matrix deposition” (MOERAE MATRIX, INC., priority 2011, dated 2020).

Chains of the proteins cited; added tags and fusions are not shown. Lines headed by an entry give the natural chain unless they say otherwise; changes in a name come on top.
UniProt Q9H4B4: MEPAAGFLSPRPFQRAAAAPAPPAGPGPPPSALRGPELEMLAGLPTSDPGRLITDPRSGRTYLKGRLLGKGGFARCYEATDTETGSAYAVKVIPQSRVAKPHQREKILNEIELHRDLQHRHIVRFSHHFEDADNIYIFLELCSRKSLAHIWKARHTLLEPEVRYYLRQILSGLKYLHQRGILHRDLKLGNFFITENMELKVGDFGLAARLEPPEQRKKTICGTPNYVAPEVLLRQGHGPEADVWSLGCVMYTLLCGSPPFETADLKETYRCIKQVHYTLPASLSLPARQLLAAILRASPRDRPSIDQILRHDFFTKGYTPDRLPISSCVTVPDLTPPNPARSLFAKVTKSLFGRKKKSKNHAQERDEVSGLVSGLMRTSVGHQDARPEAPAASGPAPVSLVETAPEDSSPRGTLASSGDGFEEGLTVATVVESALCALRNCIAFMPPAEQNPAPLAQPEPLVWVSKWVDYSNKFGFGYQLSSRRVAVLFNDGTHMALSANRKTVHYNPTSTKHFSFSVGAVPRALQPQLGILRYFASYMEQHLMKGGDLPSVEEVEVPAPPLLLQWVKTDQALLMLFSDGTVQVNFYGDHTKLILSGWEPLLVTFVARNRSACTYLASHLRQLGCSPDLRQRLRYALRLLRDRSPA
UniProt Q06187, whole entry R28H: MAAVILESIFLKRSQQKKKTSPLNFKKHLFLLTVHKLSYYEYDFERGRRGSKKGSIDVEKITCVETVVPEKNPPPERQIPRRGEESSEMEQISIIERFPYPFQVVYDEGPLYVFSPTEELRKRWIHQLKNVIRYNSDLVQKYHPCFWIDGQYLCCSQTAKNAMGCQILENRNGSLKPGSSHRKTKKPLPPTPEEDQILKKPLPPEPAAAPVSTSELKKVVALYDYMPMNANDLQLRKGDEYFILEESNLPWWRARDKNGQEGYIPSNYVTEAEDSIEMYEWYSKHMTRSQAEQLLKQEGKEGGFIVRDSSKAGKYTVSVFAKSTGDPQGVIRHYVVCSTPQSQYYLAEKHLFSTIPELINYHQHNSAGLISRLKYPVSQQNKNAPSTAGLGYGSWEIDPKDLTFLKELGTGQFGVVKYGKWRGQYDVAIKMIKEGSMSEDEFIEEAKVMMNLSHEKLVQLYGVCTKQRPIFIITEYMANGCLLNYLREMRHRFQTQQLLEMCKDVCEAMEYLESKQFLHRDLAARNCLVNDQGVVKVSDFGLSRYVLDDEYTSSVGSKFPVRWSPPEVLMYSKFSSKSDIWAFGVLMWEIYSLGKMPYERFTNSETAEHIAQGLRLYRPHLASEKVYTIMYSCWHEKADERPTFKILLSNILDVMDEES
UniProt P08631: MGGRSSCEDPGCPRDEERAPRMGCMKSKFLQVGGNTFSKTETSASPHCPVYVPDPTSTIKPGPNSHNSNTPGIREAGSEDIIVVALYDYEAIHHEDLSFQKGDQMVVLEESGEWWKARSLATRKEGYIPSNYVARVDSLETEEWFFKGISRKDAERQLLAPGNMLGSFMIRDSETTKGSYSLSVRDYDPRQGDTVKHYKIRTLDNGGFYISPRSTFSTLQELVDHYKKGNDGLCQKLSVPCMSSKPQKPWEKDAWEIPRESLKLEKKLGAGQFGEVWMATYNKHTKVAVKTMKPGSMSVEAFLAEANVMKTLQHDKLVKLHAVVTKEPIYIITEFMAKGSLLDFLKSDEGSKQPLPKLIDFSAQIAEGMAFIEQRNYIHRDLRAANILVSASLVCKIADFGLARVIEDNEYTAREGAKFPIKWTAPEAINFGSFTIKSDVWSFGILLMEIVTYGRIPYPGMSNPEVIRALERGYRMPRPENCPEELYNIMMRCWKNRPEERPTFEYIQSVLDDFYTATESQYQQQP
UniProt O14920: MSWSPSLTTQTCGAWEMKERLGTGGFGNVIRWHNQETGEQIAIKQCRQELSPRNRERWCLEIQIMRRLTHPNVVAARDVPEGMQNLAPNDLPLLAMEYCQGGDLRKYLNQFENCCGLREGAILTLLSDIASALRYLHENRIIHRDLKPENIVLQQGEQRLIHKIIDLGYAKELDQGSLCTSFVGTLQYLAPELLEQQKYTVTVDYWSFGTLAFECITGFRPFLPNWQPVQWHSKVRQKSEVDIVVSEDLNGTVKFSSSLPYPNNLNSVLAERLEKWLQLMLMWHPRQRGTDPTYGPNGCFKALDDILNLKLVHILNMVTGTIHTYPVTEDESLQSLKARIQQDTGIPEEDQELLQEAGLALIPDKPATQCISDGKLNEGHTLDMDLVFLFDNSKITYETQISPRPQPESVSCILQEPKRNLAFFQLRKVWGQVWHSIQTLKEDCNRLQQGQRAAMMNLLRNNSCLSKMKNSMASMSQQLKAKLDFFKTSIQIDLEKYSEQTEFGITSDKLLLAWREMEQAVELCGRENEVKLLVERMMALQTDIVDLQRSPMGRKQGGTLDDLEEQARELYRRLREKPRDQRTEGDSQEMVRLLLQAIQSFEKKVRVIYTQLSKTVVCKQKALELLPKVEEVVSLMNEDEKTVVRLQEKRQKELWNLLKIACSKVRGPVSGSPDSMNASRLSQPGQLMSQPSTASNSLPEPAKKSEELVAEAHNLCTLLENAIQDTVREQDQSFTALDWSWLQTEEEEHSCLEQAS

Experiments:
Test in all cases: Kinase Profiling Assay
Assay type in all cases: biochemical
Conditions in all cases: 100 μM peptide
cKit(V560G)(h) = cKit(V560G)(h) (Homo sapiens, UniProt P10721, V560G)
Procedure, shortened: (§1)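 In duplicate, the activities of 266 available human kinases were determined with MK2 inhibitory peptides present, as a measure of peptide selectivity.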

Plk3(h) = target: T1, Plk3(h) (Homo sapiens, UniProt Q9H4B4)
T1 construct: purchased Millipore (IC50 Profiler Express service)
Procedure, shortened: as §1

MAPK2(h) = MAPK2(h) (Homo sapiens, UniProt P28482)
Procedure, shortened: as §1

BTK(R28H)(h) = BTK(R28H)(h) (Homo sapiens, UniProt Q06187, R28H)
Procedure, shortened: as §1

Hck(h) = target: T2, Hck(h) (Homo sapiens, UniProt P08631)
T2 construct: purchased Millipore
Procedure, shortened: as §1

Abl(Y253F)(h) = Abl(Y253F)(h) (Homo sapiens, UniProt P00519, Y253F)
Procedure, shortened: as §1

EphA1(h) = target: T3, EphA1(h) (Homo sapiens, UniProt P21709)
T3 sequence (P21709 26-976): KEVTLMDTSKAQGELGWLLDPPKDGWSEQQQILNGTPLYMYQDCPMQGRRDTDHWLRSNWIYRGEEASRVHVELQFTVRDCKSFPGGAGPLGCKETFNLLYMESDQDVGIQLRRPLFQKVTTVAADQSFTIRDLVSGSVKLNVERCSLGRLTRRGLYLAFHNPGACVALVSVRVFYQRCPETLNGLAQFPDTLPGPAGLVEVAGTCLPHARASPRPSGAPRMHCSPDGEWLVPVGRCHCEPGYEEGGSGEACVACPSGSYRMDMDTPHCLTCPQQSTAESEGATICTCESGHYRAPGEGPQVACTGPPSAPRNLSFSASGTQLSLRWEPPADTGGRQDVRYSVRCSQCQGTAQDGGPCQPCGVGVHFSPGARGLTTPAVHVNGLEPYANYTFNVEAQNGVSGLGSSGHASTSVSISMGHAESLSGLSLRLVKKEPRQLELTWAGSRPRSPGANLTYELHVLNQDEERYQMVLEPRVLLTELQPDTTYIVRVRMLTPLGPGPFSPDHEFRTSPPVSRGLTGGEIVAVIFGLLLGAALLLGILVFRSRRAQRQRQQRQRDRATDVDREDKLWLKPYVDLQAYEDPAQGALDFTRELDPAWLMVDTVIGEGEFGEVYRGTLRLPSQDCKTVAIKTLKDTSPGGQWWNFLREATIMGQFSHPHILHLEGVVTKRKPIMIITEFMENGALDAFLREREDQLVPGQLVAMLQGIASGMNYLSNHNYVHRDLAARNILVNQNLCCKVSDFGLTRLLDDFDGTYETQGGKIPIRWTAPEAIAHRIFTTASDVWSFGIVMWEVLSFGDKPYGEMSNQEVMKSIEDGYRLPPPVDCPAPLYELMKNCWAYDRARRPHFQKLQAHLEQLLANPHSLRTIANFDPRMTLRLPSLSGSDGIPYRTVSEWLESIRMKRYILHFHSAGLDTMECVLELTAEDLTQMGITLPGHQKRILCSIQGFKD
Procedure, shortened: as §1

IKKβ(h) = target: T4, IKKβ(h) (Homo sapiens, UniProt O14920)
T4 construct: purchased Millipore
Procedure, shortened: as §1

SGK(h) = target: T5, SGK(h) (Homo sapiens, UniProt O00141)
T5 sequence (O00141 1-431): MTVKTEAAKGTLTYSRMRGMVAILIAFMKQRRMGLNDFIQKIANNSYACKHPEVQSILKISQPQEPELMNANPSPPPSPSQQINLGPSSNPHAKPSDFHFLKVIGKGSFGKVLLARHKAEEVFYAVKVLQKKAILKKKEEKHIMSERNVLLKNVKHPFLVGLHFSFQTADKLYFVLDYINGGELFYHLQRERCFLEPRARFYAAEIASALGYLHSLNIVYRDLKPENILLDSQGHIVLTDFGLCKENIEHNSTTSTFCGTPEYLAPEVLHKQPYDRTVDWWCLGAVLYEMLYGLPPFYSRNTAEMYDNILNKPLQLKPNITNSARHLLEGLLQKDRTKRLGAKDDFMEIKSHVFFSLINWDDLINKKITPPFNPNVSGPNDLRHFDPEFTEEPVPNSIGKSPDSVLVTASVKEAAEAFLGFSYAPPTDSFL
Procedure, shortened: as §1

eEF-2K(h) = eEF-2K(h) (Homo sapiens, UniProt O00418)
Procedure, shortened: as §1

YARAAARQARAKALNRQLGVA (Mammalian) [MMI-0200]
cKit(V560G)(h) % activity (cKit(V560G)(h)): 115% | Plk3(h) % activity (Plk3(h)): 107% | MAPK2(h) % activity (MAPK2(h)): 105% | BTK(R28H)(h) % activity (BTK(R28H)(h)): 104% | Hck(h) % activity (Hck(h)): 107% | Abl(Y253F)(h) % activity (Abl(Y253F)(h)): 102% | EphA1(h) % activity (EphA1(h)): 136% | IKKβ(h) % activity (IKKβ(h)): 109% | SGK(h) % activity (SGK(h)): 115% | eEF-2K(h) % activity (eEF-2K(h)): 136%
